Reference: publication PMC12440827 (Nature structural & molecular biology, 2025)

Sequences of proteins named here, by UniProt entry; tags and fusion partners are left off. A change or cut given only in a name is not applied to a line headed by its entry.
UniProt O75143: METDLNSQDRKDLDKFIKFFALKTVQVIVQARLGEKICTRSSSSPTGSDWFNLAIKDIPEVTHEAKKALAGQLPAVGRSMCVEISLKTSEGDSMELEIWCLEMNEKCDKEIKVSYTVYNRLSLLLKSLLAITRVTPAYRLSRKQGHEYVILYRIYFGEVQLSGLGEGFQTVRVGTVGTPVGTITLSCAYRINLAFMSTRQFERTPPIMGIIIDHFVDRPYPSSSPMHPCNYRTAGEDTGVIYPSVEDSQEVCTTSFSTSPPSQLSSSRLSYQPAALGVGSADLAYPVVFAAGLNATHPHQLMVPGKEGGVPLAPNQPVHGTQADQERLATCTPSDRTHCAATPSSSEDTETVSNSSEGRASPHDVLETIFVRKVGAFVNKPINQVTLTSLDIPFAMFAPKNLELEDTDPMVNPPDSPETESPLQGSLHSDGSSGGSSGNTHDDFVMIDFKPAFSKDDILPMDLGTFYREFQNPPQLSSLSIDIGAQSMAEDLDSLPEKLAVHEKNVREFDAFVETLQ

Legend:
[1] = target: FIP200n (FIP200 1-640) of the mass photometry samples (human) (UniProt Q8TDY2); experiment: mass photometry; measurement iv: FIP200n with MBP-ATG13(450-517)-ULKc; concentration of mixing and cross-linking not told; measured at 10 nM
[2] = target: FIP200n (FIP200 1-640) of the mass photometry samples (human) (UniProt Q8TDY2); experiment: mass photometry; measurement x: cross-linked at 1000 nM with 500 nM PI3KC3-C1; diluted to 10 nM for measurement
[3] = target: FIP200n (FIP200 1-640) of the mass photometry samples (human) (UniProt Q8TDY2); experiment: mass photometry; measurement viii: cross-linked at 200 nM with 100 nM PI3KC3-C1; diluted to 10 nM for measurement
[4] = target: FIP200n (FIP200 1-640) of the mass photometry samples (human) (UniProt Q8TDY2); experiment: mass photometry; measurement v: cross-linked (glutaraldehyde) at 10 nM, without PI3KC3-C1; measured at 10 nM
[5] = target: FIP200n (FIP200 1-640) of the mass photometry samples (human) (UniProt Q8TDY2); experiment: mass photometry; measurement vii: cross-linked at 200 nM, without PI3KC3-C1; diluted to 10 nM for measurement
[6] = target: FIP200n (FIP200 1-640) of the mass photometry samples (human) (UniProt Q8TDY2); experiment: mass photometry; measurement vi: cross-linked at 10 nM with 5 nM PI3KC3-C1; measured at 10 nM
[7] = target: FIP200n (FIP200 1-640) of the mass photometry samples (human) (UniProt Q8TDY2); experiment: mass photometry; measurement ix: cross-linked at 1000 nM, without PI3KC3-C1; diluted to 10 nM for measurement

% of the population as ULK1C 2:1:1 complex [1]	% of the population as ULK1C 2:2:2 complex [1]	% of the population as ULK1C 2:1:1 complex [2]	% of the population as ULK1C 2:2:2 complex [2]	% of the population as ULK1C 2:1:1 complex [3]	% of the population as ULK1C 2:2:2 complex [3]	% of the population as ULK1C 2:1:1 complex [4]	% of the population as ULK1C 2:2:2 complex [4]	% of the population as ULK1C 2:1:1 complex [5]	% of the population as ULK1C 2:2:2 complex [5]	% of the population as ULK1C 2:1:1 complex [6]	% of the population as ULK1C 2:2:2 complex [6]	% of the population as ULK1C 2:1:1 complex [7]	% of the population as ULK1C 2:2:2 complex [7]	Substance
20%	25%	–	–	–	–	–	–	–	–	–	–	–	–	MBP-ATG13(450-517)-ULKc fusion (from UniProt O75143 450-517; O75385 836-1050)
–	–	18%	23%	29%	13%	33%	4%	35%	17%	30%	5%	25%	33%	MBP-ATG13c-ULK1c fusion (ATG13 363-517, ULK1 MIT) (from UniProt O75143 363-517; O75385 836-1050)
